In PMC6162344 (Molecular Cell, 2018):
Values belong to the binder of their own block, whether it stands above or below them.

Columns and labels:
CENP-HI^Δ56KM = target: T1, CENP-HI^Δ56KM (human, UniProt Q9H3R5 1-247; Q92674 57-756; Q9BS16 1-269; Q9NSP4 1-180); test: SEC
T1 sequence (looked up) 1: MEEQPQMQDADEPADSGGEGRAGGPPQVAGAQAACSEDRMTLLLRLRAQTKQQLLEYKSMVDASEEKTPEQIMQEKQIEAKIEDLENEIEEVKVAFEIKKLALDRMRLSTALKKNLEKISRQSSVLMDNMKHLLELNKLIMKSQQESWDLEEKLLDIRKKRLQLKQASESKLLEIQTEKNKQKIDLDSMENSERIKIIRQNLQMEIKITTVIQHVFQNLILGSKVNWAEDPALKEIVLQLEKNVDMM
T1 sequence (looked up) 2: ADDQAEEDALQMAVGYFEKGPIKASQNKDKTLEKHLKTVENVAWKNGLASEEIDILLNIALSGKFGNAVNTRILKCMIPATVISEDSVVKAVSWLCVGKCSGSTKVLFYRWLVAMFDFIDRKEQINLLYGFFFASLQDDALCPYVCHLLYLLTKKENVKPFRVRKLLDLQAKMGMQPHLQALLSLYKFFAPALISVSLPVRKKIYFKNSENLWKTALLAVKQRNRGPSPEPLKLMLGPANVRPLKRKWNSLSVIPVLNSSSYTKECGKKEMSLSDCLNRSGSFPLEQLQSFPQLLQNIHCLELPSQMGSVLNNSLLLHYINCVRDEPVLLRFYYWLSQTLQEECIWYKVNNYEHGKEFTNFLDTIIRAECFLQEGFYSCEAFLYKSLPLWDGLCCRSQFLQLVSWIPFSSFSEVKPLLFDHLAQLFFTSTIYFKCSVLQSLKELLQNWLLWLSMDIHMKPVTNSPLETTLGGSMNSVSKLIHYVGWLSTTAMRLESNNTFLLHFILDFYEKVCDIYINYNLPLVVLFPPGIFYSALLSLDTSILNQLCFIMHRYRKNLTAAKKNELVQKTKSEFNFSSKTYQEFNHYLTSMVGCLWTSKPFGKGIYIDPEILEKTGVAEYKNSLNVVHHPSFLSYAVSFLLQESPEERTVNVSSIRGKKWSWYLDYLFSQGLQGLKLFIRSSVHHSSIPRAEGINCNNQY
T1 sequence (looked up) 3: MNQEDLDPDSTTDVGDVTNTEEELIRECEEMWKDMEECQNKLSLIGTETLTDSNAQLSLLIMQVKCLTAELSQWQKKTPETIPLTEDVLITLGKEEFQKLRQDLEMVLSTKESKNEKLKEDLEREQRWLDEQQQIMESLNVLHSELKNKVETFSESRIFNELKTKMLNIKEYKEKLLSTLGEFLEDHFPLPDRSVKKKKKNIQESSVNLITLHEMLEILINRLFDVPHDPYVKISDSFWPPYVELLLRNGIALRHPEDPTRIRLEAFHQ
T1 sequence (looked up) 4: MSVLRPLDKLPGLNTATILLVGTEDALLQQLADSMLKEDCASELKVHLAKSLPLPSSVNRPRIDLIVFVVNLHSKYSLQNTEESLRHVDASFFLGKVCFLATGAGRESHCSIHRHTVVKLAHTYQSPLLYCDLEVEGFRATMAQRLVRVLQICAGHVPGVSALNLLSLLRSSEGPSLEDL

CENP-C^[…]HI^Δ56KMLN = CENP-C^[…]HI^Δ56KMLN (human); test: SEC
CENP-QU = target: T2, CENP-QU (human, UniProt Q7L2Z9 1-268; Q71F23 1-418); test: AUC
T2 sequence (looked up) 1: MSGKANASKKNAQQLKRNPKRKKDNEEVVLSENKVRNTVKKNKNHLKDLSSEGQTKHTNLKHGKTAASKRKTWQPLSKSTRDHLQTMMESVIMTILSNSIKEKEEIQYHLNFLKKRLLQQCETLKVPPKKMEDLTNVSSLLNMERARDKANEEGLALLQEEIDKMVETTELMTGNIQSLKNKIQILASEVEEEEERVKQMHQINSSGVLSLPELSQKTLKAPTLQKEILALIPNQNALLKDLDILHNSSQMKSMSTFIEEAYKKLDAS
T2 sequence (looked up) 2: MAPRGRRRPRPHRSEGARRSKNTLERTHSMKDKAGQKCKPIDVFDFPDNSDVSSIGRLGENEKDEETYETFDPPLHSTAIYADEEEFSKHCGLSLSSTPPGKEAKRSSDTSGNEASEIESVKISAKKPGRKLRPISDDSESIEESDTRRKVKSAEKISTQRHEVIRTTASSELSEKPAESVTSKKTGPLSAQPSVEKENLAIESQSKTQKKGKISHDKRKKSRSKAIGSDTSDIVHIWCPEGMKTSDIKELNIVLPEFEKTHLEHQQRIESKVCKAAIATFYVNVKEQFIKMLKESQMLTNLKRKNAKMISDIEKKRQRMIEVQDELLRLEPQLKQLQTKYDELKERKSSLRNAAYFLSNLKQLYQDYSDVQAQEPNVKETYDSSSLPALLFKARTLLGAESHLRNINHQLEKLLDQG

CENP-P = target: T3, CENP-P (human, UniProt Q6IPU0 1-288); test: AUC
T3 sequence (looked up): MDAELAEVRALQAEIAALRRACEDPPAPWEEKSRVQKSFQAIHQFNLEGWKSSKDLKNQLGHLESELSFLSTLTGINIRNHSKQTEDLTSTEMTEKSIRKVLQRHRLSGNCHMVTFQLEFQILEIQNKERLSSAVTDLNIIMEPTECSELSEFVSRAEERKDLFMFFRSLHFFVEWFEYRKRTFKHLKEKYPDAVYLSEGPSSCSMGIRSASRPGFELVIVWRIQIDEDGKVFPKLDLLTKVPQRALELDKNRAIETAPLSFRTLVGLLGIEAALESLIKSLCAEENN

binding result (CENP-HI^Δ56KM): binds
B1: CENP-LN (complex)
chain 1: MDSYSAPESTPSASSRPEDYFIGATPLQKRLESVRKQSSFILTPPRRKIPQCSQLQEDVDPQKVAFLLHKQWTLYSLTPLYKFSYSNLKEYSRLLNAFIVAEKQKGLAVEVGEDFNIKVIFSTLLGMKGTQRDPEAFLVQIVSKSQLPSENREGKVLWTGWFCCVFGDSLLETVSEDFTCLPLFLANGAESNTAIIGTWFQKTFDCYFSPLAINAFNLSWMAAMWTACKMDHYVATTEFLWSVPCSPQSLDISFAIHPEDAKALWDSVHKTPGEVTQEEVDLFMDCLYSHFHRHFKIHLSATRLVRVSTSVASAHTDGKIKILCHKYLIGVLAYLTELAIFQIE
chain 2: not shown

binding result (CENP-C^[…]HI^Δ56KMLN): binds
B2: CENP-OPQUR (complex, human)
chain 1: MEQANPLRPDGESKGGVLAHLERLETQVSRSRKQSEELQSVQAQEGALGTKIHKLRRLRDELRAVVRHRRASVKACIANVEPNQTVEINEQEALEEKLENVKAILQAYHFTGLSGKLTSRGVCVCISTAFEGNLLDSYFVDLVIQKPLRIHHHSVPVFIPLEEIAAKYLQTNIQHFLFSLCEYLNAYSGRKYQADRLQSDFAALLTGPLQRNPLCNLLSFTYKLDPGGQSFPFCARLLYKDLTATLPTDVTVTCQGVEVLSTSWEEQRASHETLFCTKPLHQVFASFTRKGEKLDMSLVS
chain 2: T3 sequence (looked up)
chain 3: T2 sequence (looked up) 1
chain 4: T2 sequence (looked up) 2
chain 5: MPVKRSLKLDGLLEENSFDPSKITRKKSVITYSPTTGTCQMSLFASPTSSEEQKHRNGLSNEKRKKLNHPSLTESKESTTKDNDEFMMLLSKVEKLSEEIMEIMQNLSSIQALEGSRELENLIGISCASHFLKREMQKTKELMTKVNKQKLFEKSTGLPHKASRHLDSYEFLKAILN

stoichiometry N (CENP-QU): 1
B3: CENP-OP (complex, human)
chain 1: B2 chain 1
chain 2: T3 sequence (looked up)

stoichiometry N (CENP-P): 1
B4: CENP-O (natural protein, human, UniProt Q9BU64 1-300, looked up)
chain: B2 chain 1
